Test results as given in article doi:10.1101/2023.08.28.555062, “Discovery of 2-amide-3-methylester thiophenes that target SARS-CoV-2 Mac1 and repress coronavirus replication, validating Mac1 as an anti-viral target” (bioRxiv, 2023).

Assays:
SARS-CoV-2 Mac1 = SARS-CoV-2 Mac1 (Severe acute respiratory syndrome coronavirus 2, UniProt P0DTD1); format: binding; conditions: FRET assay, text and Fig. 1C

| Structure (SMILES) | IC50 (SARS-CoV-2 Mac1) | concentration required for inhibition of MHV replication (MHV-JHM) |
| --- | --- | --- |
| COC(=O)c1c(NC(=O)[C@H]2CCCC[C@@H]2C(=O)O)sc2c1CCCCC2 [Compound 25, (1S,2S)-2-{[3-(methoxycarbonyl)-4H,5H,6H,7H,8H-cyclohepta[b]thiophen-2-yl]carbamoyl}cyclohexane-1-carboxylic acid] | inactive | – |
| COC(=O)c1c(NC(=O)[C@@H]2CCCC[C@H]2C(=O)O)sc2c1CCCCCC2 [Compound 27, (1R,2R)-2-{[3-(methoxycarbonyl)-4H,5H,6H,7H,8H,9H-cycloocta[b]thiophen-2-yl]carbamoyl}cyclohexane-1-carboxylic acid] | – | 50 to 100 µM |
